The values below come from patent publication US20010051616A1, “METHOD OF LESSENING THE RISK OF VERTEBRAL FRACTURES” (priority 1995, published 2001).

Assay [1] deals with vertebral fractures in osteoporotic post-menopausal women. As to conditions: three years; 95% C.I.=[0.28, 0.95]. Here is the method:
VERTEBRAL FRACTURES—Calculations of prevalent and incident categorical vertebral fractures were performed by comparing each patient's baseline vertebral heights with a reference population (prevalent fracture) and with their follow-up heigiits (incident fractures). Only data from the true baselines were used to determine prevalent fractures. Any vertebral height ratio more than three standard deviations below its corresponding population reference value was defined as a prevalent vertebral fracture. An incident fracture was defined as greater than or equal to a 20% reduction from baseline vertebral height, with an absolute decrease of at least 4 mm in any vertebral height between baseline and follow-up.
Postmenopausal women having a “low” lumbar spinal bone mineral density, defined as either a bone mineral density (BMD) of less than or equal to 0.92 g/cm^2 (+ or −0.02 g/cm^2) as measured by Lunar DPX method, or less than or equal to 0.80 g/cm^2 (+ or −0.02 g/cm^2) as measured by the Hologic QDR method are considered to have osteoporosis. […]
Assessment of vertebral fracture and vertebral deformity (SDI) was based on measurements from lateral spine x-rays, blinded to sequence. […] The process of reading the x-rays involved a computerized entry of measurements taken at each of the vertebrae noted on the x-rays, a process known as digitization. […]

In assay [2] the test system is decrease in stature in osteoporotic post-menopausal women. As to conditions: after three years of treatment; all patients; p=0.005 vs placebo. The text has this:
Postmenopausal women having a “low” lumbar spinal bone mineral density, defined as either a bone mineral density (BMD) of less than or equal to 0.92 g/cm^2 (+ or −0.02 g/cm^2) as measured by Lunar DPX method, or less than or equal to 0.80 g/cm^2 (+ or −0.02 g/cm^2) as measured by the Hologic QDR method are considered to have osteoporosis. This definition corresponds to a BMD of approximately two and one-half standard deviations below the mean BMD of mature pre-menopausal Caucasian women in the United States. Patients are otherwise in good health based on medical history, a physical examination and a laboratory screening evaluation.
Data was collected on a total of 881 patients from two study groups (cohorts), following virtually identical protocol design and procedures, except that one study was conducted in the United States, and the other was conducted in Canada, Mexico, Europe, Israel, South America, Australia and New Zealand. Data from the two groups was then pooled. […] Additionally, all patients received dietary evaluation and instruction on calcium intake.

As for `NCCCC(O)(P(=O)(O)O)P(=O)(O)O` [alendronate, 4-amino-1-hydroxy-butylidene-1,1-bisphosphonate], the “relative risk of incident fracture, alendronate-treated versus placebo treated” value in assay [1] is given as 0.52. The “mean change in stature” value in assay [2] is on record as −3.01 mm.
